# Values quoted from earlier work, collected in US20070123592A1, “Terephthalamide peptidomimetic compounds and methods” (YALE UNIVERSITY, priority 2004, published 2007).
# Sequences of proteins named here, by UniProt entry; tags and fusion partners are left off.
# UniProt Q07817, whole entry, species assumed: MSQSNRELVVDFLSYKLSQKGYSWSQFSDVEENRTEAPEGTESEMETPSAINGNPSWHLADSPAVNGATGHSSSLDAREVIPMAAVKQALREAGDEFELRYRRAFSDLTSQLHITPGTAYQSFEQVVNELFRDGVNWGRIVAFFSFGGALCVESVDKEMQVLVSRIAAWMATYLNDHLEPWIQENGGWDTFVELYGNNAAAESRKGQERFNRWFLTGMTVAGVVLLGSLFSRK
# Target: T1, Bcl-xL/Bak complex (Homo sapiens, UniProt Q07817)
# T1 construct: made in house
# Conditions: read-out: Kd of 16-mer Bak peptide for Bcl-xL, cited from earlier work
substance,measurement,setting,value
"F1-GQVGRQLAIIGDDINR-CONH2 [16-mer Bak peptide, fluorescently labeled 16-mer Bak-peptide, N-terminus capped with fluorophore, C-terminus amidated]",Kd,known affinity used to convert IC50 to Ki,120 nM
same,Kd,"known affinity, saturation titration experiment",120 nM

# Like-named read-outs stand apart in the source and are kept apart here.
